In the assay the target is T1, murine Jak2 protein tyrosine kinase (murine, UniProt Q62120).
T1 construct: also called 130 kDa protein; p130
The assay can be described thus: pull-down from cell extracts on GST beads, Jak2 immunoblot. On the procedure: The fusion proteins were purified by affinity binding to glutathione-sepharose beads and the proteins, on affinity beads, were incubated with extracts of unstimulated or EPO stimulated DA3(EPOR) cells. The bound proteins were recovered from the beads, resolved on SDS-PAGE and the gels blotted to nitrocellulose. The blots were subsequently probed with antisera against various tyrosine kinases.
A general note: In western blotting, separated proteins are transferred to a membrane and probed.

B1: GST alone bound to glutathione-sepharose (other, UniProt P08515 1-218, looked up)
chain: MSPILGYWKIKGLVQPTRLLLEYLEEKYEEHLYERDEGDKWRNKKFELGLEFPNLPYYIDGDVKLTQSMAIIRYIADKHNMLGGCPKERAEISMLEGAVLDIRYGVSRIAYSKDFETLKVDFLSKLPEMLKMFEDRLCHKTYLNGDHVTHPDFMLYDALDVVLYMDPMCLDAFPKLVCFKKRIEAIPQIDKYLKSSKYIAWPLQGWQATFGGGDHPPK
notes: Control; also called glutathione-S-transferase
Take B1: the binding result is recorded as “no binding”.

Values taken from patent US6969760 (ST JUDE CHILDREN S RESEARCH HOSPITAL, dated 2005).
